Assay: Toxicity in erythrocytes (unknown origin) assessed as hemolytic activity
Format: cell-based, Erythrocyte
Conditions: read-out: HD50 (the source's name)
Method in brief: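 Human erythrocytes from heparinised blood, spun 3000 rpm for 10 min after three saline washes, used at 0.4% (v/v) in isotonic saline. Equal volumes incubated with increasing concentrations (0.4 to 4.4 mg/mL for extracts) for 60 min at 37 °C. Cells spun at 3000 rpm for 5 min and supernatant A405 read. Lysis by 1% Triton X-100 served as 100%.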

Compound `CC[C@H](C)[C@H](NC(=O)CN)C(=O)NCC(=O)N[C@@H](C)C(=O)N[C@H](C(=O)N[C@@H](CC(C)C)C(=O)N[C@@H](CCCCN)C(=O)N[C@H](C(=O)N[C@@H](CC(C)C)C(=O)N[C@H](C(=O)N[C@H](C(=O)NCC(=O)N[C@@H](CC(C)C)C(=O)N1CCC[C@H]1C(=O)N[C@@H](C)C(=O)N[C@@H](CC(C)C)C(=O)N[C@H](C(=O)N[C@@H](CO)C(=O)N[C@@H](Cc1c[nH]c2ccccc12)C(=O)N[C@H](C(=O)N[C@@H](CCCCN)C(=O)N[C@@H](CCCNC(=N)N)C(=O)N[C@@H](CCCCN)C(=O)N[C@@H](CCCNC(=N)N)C(=O)N[C@@H](CCC(N)=O)C(=O)N[C@@H](CCC(N)=O)C(N)=O)[C@@H](C)CC)[C@@H](C)CC)[C@@H](C)O)[C@@H](C)O)C(C)C)C(C)C` [MELITTIN] has an HC50 of 600 nM.

From ChEMBL document CHEMBL3259819, “Antimicrobial peptides from skin secretions of Hypsiboas pulchellus (Anura: Hylidae)” (J Nat Prod, 2014)
